Assay results from PubChem BioAssay AID1466 (National Center for Advancing Translational Sciences (NCATS), 2008).
Some of the results follow. Inconclusive results are not listed. The source made the active and inactive calls. The call rests on the fitted dose curve; in most records, active means well fitted inhibition curve with a large enough effect; inconclusive means small, poorly fitted or top-dose-only effect, or effect the other way, or another doubt; inactive means no such curve, though single readings can be large or run the other way.

Biological target: Lysosomal alpha-glucosidase (Homo sapiens) (UniProt P10253)
Experiment: qHTS Assay for Inhibitors of Human alpha-Glucosidase as a Potential Chaperone Treatment of Pompe Disease;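 further: plate controls were uninhibited enzyme wells for no effect and no-enzyme background for full effect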
Settings: purified human GAA, 4-MU-alpha-glucoside fluorescence; at 76.9 µM (top of the series)

Compound | activity change, negative = inhibition
CCN1CCC(Nc2cccc(F)c2)CC1 | inactive: -5.67%
CN(C)c1ccc(C(=O)NCC2(N3CCCCC3)CCCCC2)cc1 | inactive: -3.63%
CCOc1ncccc1C(=O)NCC1(N2CCOCC2)CCCCC1 | inactive: 0.887%
CC(C)(C)OC(=O)N1CCC(Nc2ccccc2)CC1 | inactive: -4.31%
COc1cc(OC)cc(C(=O)NCC2(N3CCOCC3)CCCCC2)c1 | inactive: 6.89%
CCCOc1ccc(C)cc1CN(CCCl)CCCl | inactive: -10.3%
COc1ccc(C(=O)NCC2(N3CCOCC3)CCCCC2)cc1OC | inactive: -4.57%
N/C(=N\O)c1c(N)no[n+]1[O-] | inactive: -2.49%
O=C(OC1CN2CCC1CC2)C1c2ccccc2C=Cc2ccccc21 (centres undefined) | inactive: -1.95%
N#Cc1ccc(C(=O)NCC2(N3CCCCC3)CCCCC2)cc1 | inactive: -0.631%
CCOC(=O)C(CC)C1=NC(C)(C)Cc2ccccc21.O=[N+]([O-])c1cc([N+](=O)[O-])c(O)c([N+](=O)[O-])c1 (centres undefined) | inactive: -11%
c1ccc(CN2CCC(Nc3ccccc3)CC2)cc1 | inactive: 2.49%
N#CC1(Nc2ccccc2)CCN(CCc2ccccc2)CC1 | inactive: -0.0267%
O=C(NCC1(N2CCCCC2)CCCCC1)c1cccc([N+](=O)[O-])c1 | inactive: -12.2%
O=[N+]([O-])c1cc([N+](=O)[O-])c(NCC2CCS(=O)(=O)C2)c([N+](=O)[O-])c1 (centres undefined) | inactive: -4.89%
O=C(NCC1(N2CCOCC2)CCCCC1)c1cc(=O)[nH]c2ccccc12 | inactive: -3.13%
CN1CCN(CCOC(=O)C(O)(c2ccccc2)c2ccccc2)CC1 | inactive: -13.5%
COc1ccc(NC2CCN(C(=O)OC(C)(C)C)CC2)cc1 | inactive: -7.16%
CC(C)c1ccc(NC2CCN(C(=O)OC(C)(C)C)CC2)cc1 | inactive: -4.3%
COc1ccc(CN(CCCl)CCCl)cc1Cl | inactive: 11.2%
CN(C)c1cccc(C(=O)NCC2(N3CCCCC3)CCCCC2)c1 | inactive: -6.04%
O=C(OC1CN2CCC1CC2)c1ccc([N+](=O)[O-])cc1 (centres undefined) | inactive: -4.53%
COc1ccc(C(=O)NCC2(N3CCCCC3)CCCCC2)c(OC)c1OC | inactive: -6.8%
O=C(NCC1(N2CCOCC2)CCCCC1)c1cc2ccccc2o1 | inactive: 0.503%
O=C(OC1CN2CCC1CC2)C1c2ccccc2Oc2ccccc21 (centres undefined) | inactive: -0.735%
CCOC(=O)N1CCC(Nc2ccc(OC)cc2)CC1 | inactive: -23.6%
CCOc1ccc(C)cc1CN(CCCl)CCCl | inactive: -12.9%
COc1ccc(NC2CCN(CCc3ccccc3)CC2)c(OC)c1 | inactive: 0.143%
Cc1ccc(OCC(C)C)c(CN(CCCl)CCCl)c1 | inactive: -5.23%
